# Measured values as given in article PMC6117024, “NOP receptor pharmacological profile – A dynamic mass redistribution study” (PLoS ONE, 2018).
# The chains behind the UniProt entries cited, without tags or fusion partners. Where a name states a change or a piece, a line headed by the entry shows the natural chain unless it says otherwise.
# UniProt P41146: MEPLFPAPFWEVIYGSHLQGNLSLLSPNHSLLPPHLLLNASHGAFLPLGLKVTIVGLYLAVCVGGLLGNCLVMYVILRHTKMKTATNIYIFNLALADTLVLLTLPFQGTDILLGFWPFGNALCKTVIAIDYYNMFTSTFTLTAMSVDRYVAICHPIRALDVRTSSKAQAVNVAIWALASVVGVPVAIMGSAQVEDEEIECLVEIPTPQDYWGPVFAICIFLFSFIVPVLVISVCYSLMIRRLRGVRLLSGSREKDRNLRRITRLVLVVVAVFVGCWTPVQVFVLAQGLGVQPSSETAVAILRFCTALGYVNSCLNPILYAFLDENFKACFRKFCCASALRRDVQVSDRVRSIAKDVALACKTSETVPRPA
# Biological target: human NOP receptor (Homo sapiens, UniProt P41146)
# Test: DMR assay in CHONOP cells, agonist effects
# Settings: pEC50, CHONOP cells, DMR peak; 37°C; at least 3 experiments in triplicate; inactive = no DMR response up to 1 μM; parentheses: CL95% (Fig 3)
smiles,measurement,value
"C[C@H](NC(=O)CNC(=O)[C@@H](NC(=O)[C@H](Cc1ccccc1)NC(=O)CNC(=O)CNC(=O)[C@@H](N)Cc1ccccc1)[C@@H](C)O)C(=O)N[C@@H](CCCN=C(N)N)C(=O)N[C@@H](CCCCN)C(=O)N[C@@H](CO)C(=O)N[C@@H](C)C(=O)N[C@@H](CCCN=C(N)N)C(=O)N[C@@H](CCCCN)C(=O)N[C@@H](CCCN=C(N)N)C(=O)N[C@@H](CCCCN)C(=O)N[C@@H](CC(N)=O)C(=O)N[C@@H](CCC(N)=O)C(=O)O [[Arg^14,Lys^15]N/OFQ]",EC50,2.34 nM
